Source: PubChem BioAssay AID743126 (The Scripps Research Institute Molecular Screening Center, 2013)
The entries are a selection whose mix differs from that of the whole data set. Active and inactive are the calls of the source.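 How the source made its calls: active means inhibition above mean plus 3 SD of compounds lying within the high and low control bounds (cut at about 19% in these data); inactive means the rest.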

Sequences of proteins named here, by UniProt entry; tags and fusion partners are left off.
UniProt Q9NZ20, whole entry: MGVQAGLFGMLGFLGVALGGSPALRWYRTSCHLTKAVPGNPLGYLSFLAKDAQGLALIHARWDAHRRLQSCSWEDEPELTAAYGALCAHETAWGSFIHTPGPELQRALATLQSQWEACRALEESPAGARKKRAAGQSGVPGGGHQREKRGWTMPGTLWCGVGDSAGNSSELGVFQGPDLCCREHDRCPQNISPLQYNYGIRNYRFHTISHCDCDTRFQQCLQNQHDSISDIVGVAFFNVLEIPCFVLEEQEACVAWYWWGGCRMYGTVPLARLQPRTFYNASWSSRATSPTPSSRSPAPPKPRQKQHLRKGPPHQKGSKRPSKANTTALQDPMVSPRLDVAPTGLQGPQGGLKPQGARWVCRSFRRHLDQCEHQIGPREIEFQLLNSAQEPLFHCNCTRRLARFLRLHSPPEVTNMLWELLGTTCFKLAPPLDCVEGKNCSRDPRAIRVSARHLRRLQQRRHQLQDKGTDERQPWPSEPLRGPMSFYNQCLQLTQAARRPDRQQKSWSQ

Biological target: Group 3 secretory phospholipase A2 (Homo sapiens) (UniProt Q9NZ20)
Assay: human group III sPLA2 inhibitors, primary screen, biochemical, QFRET, BODIPY PC-A2 liposome substrate (AID 743126);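 further: 0% = median of test compound wells and 100% = no enzyme DMSO wells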
Details: QFRET BODIPY PC-A2 liposome hydrolysis, fluorescence; at 12.2 µM; active compounds read high

| Compound | inhibition |
| --- | --- |
| N#Cc1ccc(C(=O)NCC2(N3CCCCC3)CCCCC2)cc1 | inactive: 4.05% |
| CC(C)(C)OC(=O)N1CCC(N(C(=O)c2ccccc2)c2ccc(Cl)cc2)CC1 | inactive: 1.49% |
| CC(C)(C)n1nnnc1C(c1cccc2ccccc12)N1CCC(n2c(=O)[nH]c3ccccc32)CC1 (stereo not given) | inactive: -15.5% |
| CN(C)C1(CNC(=O)c2cccc(C#N)c2)CCCCC1 | inactive: 2.79% |
| Cc1cc(N(CCCl)CCCl)ccc1C=O | inactive: 0.33% |
| O=c1[nH]c2ccccc2n1C1CCN(C(c2ccccc2)c2nnnn2C2CCCC2)CC1 (stereo not given) | inactive: 1.23% |
| CCCN1CCC(Nc2cc(OC)cc(OC)c2)CC1 | inactive: 13.7% |
| C/C(N)=N\P(=O)(Oc1ccccc1)Oc1ccccc1 | inactive: 4.23% |
| c1ccc(CN2CCC(Nc3ccccc3)CC2)cc1 | inactive: 3.42% |
| NC(=O)C1(Nc2ccccc2)CCN(Cc2ccccc2)CC1 | inactive: -0.36% |
| O=c1[nH]c2ccccc2n1C1CCN(C(c2cccs2)c2nnnn2C2CCCCC2)CC1 (stereo not given) | inactive: -8.57% |
| O=c1[nH]c2ccccc2n1C1CCN(C(c2ccnc3ccccc23)c2nnnn2C2CCCC2)CC1 (stereo not given) | inactive: -10.5% |
| COc1ccc(C(=O)NCC2(N3CCOCC3)CCCCC2)cc1OC | inactive: 1.28% |
| COc1cc(C(=O)NCC2(N3CCOCC3)CCCCC2)cc(OC)c1C | inactive: 14.3% |
| CCCCn1nnnc1C(c1ccccc1)N1CCC(n2c(=O)[nH]c3ccccc32)CC1 (stereo not given) | inactive: -19.9% |
| O=C(NCC1(N2CCOCC2)CCCCC1)c1cc(Br)ccc1Cl | inactive: 10.9% |
| O=c1[nH]c2ccccc2n1C1CCN(C(c2cccs2)c2nnnn2C2CCCC2)CC1 (stereo not given) | inactive: -16.3% |
| O=C(OC1CN2CCC1CC2)C1c2ccccc2C=Cc2ccccc21 (stereo not given) | inactive: -14.6% |
| CCCCn1nnnc1C(c1cccc(OC)c1OC)N1CCC(n2c(=O)[nH]c3ccccc32)CC1 (stereo not given) | inactive: -20.9% |
| CCOC(=O)N1CCC(Nc2ccc(C)cc2)CC1 | inactive: 4.67% |
| COc1cccc(C(c2nnnn2C(C)(C)C)N2CCC(n3c(=O)[nH]c4ccccc43)CC2)c1OC (stereo not given) | inactive: -10.6% |
| N/C(=N\O)c1c(N)no[n+]1[O-] | inactive: 2.59% |

| Compound | inhibition |
| --- | --- |
| NN(c1ccccc1)C1CCN(CCc2ccccc2)CC1 | inactive: -2.78% |
| O=C(O)C1(Nc2ccccc2)CCN(Cc2ccccc2)CC1 | inactive: -2.52% |
| CC(C)(C)OC(=O)N1CCC(Nc2ccccc2)CC1 | inactive: 6.06% |
| O=c1[nH]c2ccccc2n1C1CCN(C(c2cc3ccccc3o2)c2nnnn2C2CCCC2)CC1 (stereo not given) | inactive: -18.7% |
| CCCOc1ccc(C(=O)NCC2(N(C)C)CCCCC2)cc1 | inactive: 14.7% |
| CN1CCC(Nc2ccc(F)c(Cl)c2)CC1 | inactive: -0.8% |
| CCOc1ncccc1C(=O)NCC1(N2CCOCC2)CCCCC1 | inactive: 0.26% |
| CN1CCC(Nc2ccc(Cl)cc2)CC1 | inactive: 9.92% |
| COc1cccc(C(=O)N(c2cc(C)cc(C)c2)C2CCN(C(=O)OC(C)(C)C)CC2)c1 | inactive: -5.8% |
| COc1cc(OC)cc(C(=O)NCC2(N3CCOCC3)CCCCC2)c1 | inactive: -2.72% |
| COc1cccc(C(c2nnnn2C2CCCC2)N2CCC(n3c(=O)[nH]c4ccccc43)CC2)c1OC (stereo not given) | inactive: -14.2% |
| CCC(CO)(C(=O)OC1CN2CCC1CC2)c1ccccc1 (stereo not given) | inactive: -5.09% |
| Fc1ccccc1NC1CCN(Cc2ccccc2)CC1 | inactive: -2.59% |
| Cc1ccc(C(=O)NCC2(N3CCCCC3)CCCCC2)o1 | inactive: 5.89% |
| Cc1ccc(NC2(C#N)CCN(Cc3ccccc3)CC2)cc1 | inactive: 4.13% |
| CCC(c1nnnn1C1CCCCC1)N1CCC(n2c(=O)[nH]c3ccccc32)CC1 (stereo not given) | inactive: 2.18% |
| COc1cccc(C(c2nnnn2C2CCCCC2)N2CCC(n3c(=O)[nH]c4ccccc43)CC2)c1OC (stereo not given) | inactive: -25.2% |
| CC(=O)N(c1ccccc1)C1CCNCC1 | inactive: 16.6% |
| COc1cc(OC)cc(C(=O)NCC2(N3CCCCC3)CCCCC2)c1 | inactive: 0.48% |
| O=c1[nH]c2ccccc2n1C1CCN(C(c2ccnc3ccccc23)c2nnnn2C2CCCCC2)CC1 (stereo not given) | inactive: -4.54% |
| CN(C)c1ccc(C(=O)NCC2(N3CCCCC3)CCCCC2)cc1 | inactive: 2.84% |
| Cn1c(=O)[nH]cc(N(CCCl)CCCl)c1=O | inactive: 1.22% |

| Compound | inhibition |
| --- | --- |
| O=C(NCC1(N2CCCCC2)CCCCC1)c1ccco1 | inactive: -8.9% |
| CCN1CCC(Nc2cccc(F)c2)CC1 | inactive: 1.59% |
| COc1ccc(C(c2nnnn2C2CCCCC2)N2CCC(n3c(=O)[nH]c4ccccc43)CC2)cc1 (stereo not given) | inactive: -1.73% |
| CC(C)(C)n1nnnc1C(c1ccnc2ccccc12)N1CCC(n2c(=O)[nH]c3ccccc32)CC1 (stereo not given) | inactive: -10.8% |
| Cc1ccccc1NC1(C#N)CCN(Cc2ccccc2)CC1 | inactive: -1.9% |
| CCOC(=O)N1CCC(Nc2ccc(F)cc2)CC1 | inactive: 6.9% |
| COc1ccc(NC2CCN(CCc3ccccc3)CC2)c(OC)c1 | inactive: 12.8% |
| CCCCOc1ccc(C(=O)NCC2(N3CCOCC3)CCCCC2)cc1 | inactive: 1.93% |
| CCCCn1nnnc1C(c1cc2ccccc2o1)N1CCC(n2c(=O)[nH]c3ccccc32)CC1 (stereo not given) | inactive: -5.57% |
| O=P1(N(CCCl)CCCl)SCCCS1 | inactive: 6.04% |
| O=C(NCC1(N2CCCCC2)CCCCC1)c1ccc(F)cc1 | inactive: 0.6% |
| O=C1CCN(Cc2ccccc2)CC1 | inactive: 4.69% |
| CC(C)(C)n1nnnc1C(c1ccccc1)N1CCC(n2c(=O)[nH]c3ccccc32)CC1 (stereo not given) | inactive: -0.02% |
| CCOc1ccc(C)cc1CN(CCCl)CCCl | inactive: 5.09% |
| CCOC(=O)N1CCC(Nc2cccc(C)c2)CC1 | inactive: 15.5% |
| COc1cc(C(=O)NCC2(N(C)C)CCCCC2)ccc1OC(F)F | inactive: 14.5% |
| O=c1[nH]c2ccccc2n1C1CCN(C(c2cccc3ccccc23)c2nnnn2C2CCCC2)CC1 (stereo not given) | inactive: -2.45% |
| O=c1[nH]c2ccccc2n1C1CCN(C(c2ccccc2)c2nnnn2C2CCCCC2)CC1 (stereo not given) | inactive: 12% |
| Cc1cccc(NC2(C#N)CCN(Cc3ccccc3)CC2)c1 | inactive: -0.72% |
| CSc1ccccc1C(=O)NCC1(N2CCCCC2)CCCCC1 | inactive: 2.44% |
| CC(C)(C)OC(=O)N1CCC(N(C(=O)c2ccccc2)c2ccc(F)cc2)CC1 | inactive: -2.53% |
| COc1ccc(C(=O)NCC2(N3CCCCC3)CCCCC2)c(OC)c1OC | inactive: 5.76% |

| Compound | inhibition |
| --- | --- |
| CCC(c1nnnn1C1CCCC1)N1CCC(n2c(=O)[nH]c3ccccc32)CC1 (stereo not given) | inactive: -3.86% |
| COc1ccc(C(=O)NCC2(N3CCCCC3)CCCCC2)cc1 | inactive: 2.36% |
| O=C(NCC1(N2CCCCC2)CCCCC1)c1cccs1 | inactive: 2.13% |
| CCCCn1nnnc1C(CC)N1CCC(n2c(=O)[nH]c3ccccc32)CC1 (stereo not given) | inactive: 15.9% |
| CCCCn1nnnc1C(c1cccs1)N1CCC(n2c(=O)[nH]c3ccccc32)CC1 (stereo not given) | inactive: -17% |
| O=C(NCC1(N2CCCCC2)CCCCC1)c1ccc(=O)[nH]c1 | inactive: 6.7% |
| COc1ccc(Cl)cc1C(=O)NCC1(N2CCOCC2)CCCCC1 | inactive: -0.2% |
| O=C(NCC1(N2CCCCC2)CCCCC1)c1ccc(Cl)s1 | inactive: 9.89% |
| N#CC1(Nc2ccccc2)CCN(Cc2ccccc2)CC1 | inactive: 1.61% |
| O=c1[nH]c2ccccc2n1C1CCN(C(c2cc3ccccc3o2)c2nnnn2C2CCCCC2)CC1 (stereo not given) | inactive: 3.04% |
| O=C(OC1CN2CCC1CC2)C1c2ccccc2Oc2ccccc21 (stereo not given) | inactive: -3.8% |
| CCCCn1nnnc1C(c1ccc(OC)cc1)N1CCC(n2c(=O)[nH]c3ccccc32)CC1 (stereo not given) | inactive: -14.2% |
| CCOC(=O)N1CCC(Nc2ccc(OC)cc2)CC1 | inactive: 4.92% |
| Cc1cc(C)cc(N(C(=O)c2ccccc2)C2CCN(C(=O)OC(C)(C)C)CC2)c1 | inactive: -5.3% |
| O=C(NCC1(N2CCCCC2)CCCCC1)c1ccc(Cl)nc1 | inactive: 5.82% |
| O=c1[nH]c2ccccc2n1C1CCN(C(c2ccccc2OC(F)(F)F)c2nnnn2C2CCCCC2)CC1 (stereo not given) | inactive: -0.08% |
| O=C(NCC1(N2CCOCC2)CCCCC1)c1cc2ccccc2o1 | inactive: -9.97% |
| CCC(c1nnnn1C(C)(C)C)N1CCC(n2c(=O)[nH]c3ccccc32)CC1 (stereo not given) | inactive: -3.3% |
| O=C(NCC1(N2CCOCC2)CCCCC1)c1cc(F)c(F)cc1Cl | inactive: 6.59% |
| COc1cc(OC)c(C(=O)NCC2(N(C)C)CCCCC2)cc1OC | inactive: 14.6% |
| CCCCn1nnnc1C(c1ccnc2ccccc12)N1CCC(n2c(=O)[nH]c3ccccc32)CC1 (stereo not given) | inactive: -24.3% |
| CC(C)c1ccc(NC2CCN(C(=O)OC(C)(C)C)CC2)cc1 | inactive: -0.75% |

| Compound | inhibition |
| --- | --- |
| CN(C)c1cccc(C(=O)NCC2(N3CCCCC3)CCCCC2)c1 | inactive: 7.09% |
| COc1ccc(CN(CCCl)CCCl)cc1Cl | inactive: 10% |
| COC(=O)C1(Nc2ccccc2)CCN(Cc2ccccc2)CC1 | inactive: -0.01% |
| COc1ccc(C(c2nnnn2C2CCCC2)N2CCC(n3c(=O)[nH]c4ccccc43)CC2)cc1 (stereo not given) | inactive: -4.19% |
| CCCOc1ccc(C(=O)NCC2(N(C)C)CCCCC2)cc1OC | inactive: 6.15% |
| Cc1ccc(C(=O)NCC2(N(C)C)CCCCC2)o1 | inactive: 5.87% |
| CN1CCC(Nc2cccc(F)c2)CC1 | inactive: -0.92% |
| O=C(NCC1(N2CCCCC2)CCCCC1)c1cncc(Br)c1 | inactive: -8.91% |
| O=c1[nH]c2ccccc2n1C1CCN(C(c2ccccc2OC(F)(F)F)c2nnnn2C2CCCC2)CC1 (stereo not given) | inactive: 13.7% |
| N#CC1(Nc2ccccc2)CCN(CCc2ccccc2)CC1 | inactive: 1.43% |
| CCN1CCC(Nc2ccc(Cl)cc2)CC1 | active: 22% |
| O=C(NCC1(N2CCCCC2)CCCCC1)c1cccc([N+](=O)[O-])c1 | inactive: -1% |
| CSc1ccc(C(=O)NCC2(N3CCOCC3)CCCCC2)cc1 | inactive: 0.84% |
| O=C(NCC1(N2CCCCC2)CCCCC1)c1ccc(OC(F)F)cc1 | inactive: 9.12% |
| CC(C)(C)n1nnnc1C(c1ccccc1OC(F)(F)F)N1CCC(n2c(=O)[nH]c3ccccc32)CC1 (stereo not given) | inactive: -8.11% |
| O=C(NCC1(N2CCOCC2)CCCCC1)c1cc(=O)[nH]c2ccccc12 | inactive: 5.41% |
| COc1cc(C(=O)NCC2(N3CCCCC3)CCCCC2)ccc1OC(F)F | inactive: 2.82% |
| CC(C)c1ccc(C(=O)NCC2(N3CCOCC3)CCCCC2)cc1 | inactive: -1.89% |
| COc1ccc(NC2CCN(C(=O)OC(C)(C)C)CC2)cc1 | inactive: 12.5% |
| CN1CCN(CCOC(=O)C(O)(c2ccccc2)c2ccccc2)CC1 | inactive: 3.17% |
| CCCCn1nnnc1C(c1cccc2ccccc12)N1CCC(n2c(=O)[nH]c3ccccc32)CC1 (stereo not given) | inactive: -23.2% |
| O=C(NCC1(N2CCCCC2)CCCCC1)c1cccc(C(F)(F)F)c1 | inactive: 13.8% |
